Measurements published in PMC3843672, “Resistance to Degradation and Cellular Distribution are Important Features for the Antitumor Activity of Gomesin” (PLoS ONE, 2013).
Like-named read-outs stand apart in the source and are kept apart here.

Columns and labels:
[1] = system: B16 F10 mouse melanoma cell line; format: cell-based; settings: B16 cells, RPMI with 10% FBS, 24 h treatment, MTT reduction, relative to control viability (100%)
Protocol: B16 F10 mouse melanoma cell line was cultured in RPMI medium supplemented with 10% fetal bovine serum (FBS; Gibco, USA), 10 U/ml penicillin and 10 µg/ml streptomycin. Cells were cultured in a humidified incubator containing 2.5% CO2 at 37°C.
B16 cells were incubated in 96-well microtiter plates in RPMI medium supplemented with 10% FBS until reach the semi-confluence and then treated with different concentrations of Gm and its analogues for 24 h. To investigate the mechanisms of Gm-induced cell death, B-16 cells were also pre-incubated with 40 µM cytochalasin D (Tocris, USA); 20 µM necrostatin-1 (Tocris, USA), 10 µM Z-VAD (Tocris, USA), 5 mM MβCD (Tocris, USA), and 100 µM chloroquine (Tocris, USA) for 1 h. Cell viability was determined using the standard reduction of the tetrazolium salt 3-(4,5-dimethylthiazol-2-yl)-2,5-diphenyltetrazolium bromide (MTT). The results were expressed relative to control cell viability (100%).

[2] = Resistance to degradation by lysosomal enzymes (LC/ESI-MS); format: in vitro ADME; settings: 37°C
Protocol: The cultured cells were resuspended using pH 5 Tris buffer, and then sonicated. Protein concentration was measured using the RC DC protein assay kit (Bio-Rad, CA, USA) according to the manufacturer’s instructions. The peptides were incubated with this protein solution for 1–14 h, and its stability was evaluated by reversed-phase liquid chromatography coupled with an electrospray ionization mass spectrometer (LC/ESI-MS).
Figure 2 Lysosomal enzymes participate in the cytotoxic reduction activities of the Gm analogues. (A, C and D) Cell viability was assessed by the MTT reduction test. (A) Cells were incubated with cytoskeletal inhibitor (cytochalasin D), and lysosomal inhibitor (chloroquine) for 1 h before to stimulation by Gm, and its analogues for 24 h. Chloroquine potentiated the cytotoxicity of peptides. (B) Since chloroquine was able to potentiate the cytotoxicity of the peptides, resistance to degradation of lysosomal enzymes was evaluated by LC/ESI-MS. Peptides were incubated at 37°C for different times. (C) Cells were incubated with the IC50 concentration for each peptide. Cytotoxic activities after 24 and 72 h of the peptide incubation were compared.

B16 cells [3] = experiment: Peptide internalized into cells, biotinylated peptides, flow cytometry; format: cell-based, mouse
Protocol: Cells were treated with the 2 µM biotinylated peptide. Then, the melanoma cells (5×10^5 for flow cytometry or 5×10^3 cell seeded for confocal microscopy) were labeled with streptavidin-Alexa 488 (Invitrogen, USA) for 30 min at 4°C and washed with PBS. The cells were fixed with a solution of 2% paraformaldehyde for 30 min, washed with 0.1 M glycin, and permeabilized with 0.01% saponin. Then, the cells were labeled with streptavidin-Alexa 647 (Invitrogen, USA). For flow cytometry, the cells were extracted using PBS with 5 mM EDTA previously to fixation. The quantification of label of external biotynilated peptide, and intracellular peptide were performed by flow cytometry or confocal microscopy. For flow cytometry the cells were excited using argon laser (488 nm), and diode laser (633 nm). The emission was collected in FL-1 and FL-4 channel. […] The pinhole device was adjusted to capture fluorescence of one airy unit. […]
We quantified the Gm and analogues binding to the cellular membrane, and their internalization using their biotinylated counterpart. […] External peptides labeled with streptavidin Alexa Fluor 488 were identified for the quantification of the green fluorescence (FL1 channel), and internal peptides labeled with streptavidin Alexa Fluor 647 were identified for the quantification of the deep red fluorescence (FL4 channel), after permeabilization of cellular membrane, by Flow cytometry. […]

B16 cells [4] = experiment: Cell death by the annexin-V and 7-AAD assay; format: cell-based, mouse; settings: 24 h, peptide at IC50, flow cytometry
Protocol: B16 cells (5×10^5 cells/ml) were treated with Gm and subsequently harvested, washed with PBS and resuspended in binding buffer (0.01 M HEPES, pH 7.4, 0.14 M NaCl and 2.5 mM CaCl2). The suspensions were labeled with annexin-V-APC (An) and 5 µg/ml 7-Amino-actinomycin D (7-AAD) (BD Biosciences, USA) according to the manufacturer’s instructions. After incubation at room temperature for 20 min, cells were analyzed in a FACSCalibur flow cytometer (Becton Dickinson, USA) using CellQuest, and FlowJo 7.6 software. A total of 10,000 events were collected per sample.

SMILES: CC(C)C[C@@H]1NC(=O)[C@H](CCCNC(=N)N)NC(=O)[C@H](CCCNC(=N)N)NC(=O)[C@@H](NC(=O)[C@@H]2CCC(=O)N2)CSSC[C@@H](C(=O)N[C@@H](CCCNC(=N)N)C(=O)NCC(=O)N[C@@H](CCCNC(=N)N)C(N)=O)NC(=O)[C@H](Cc2ccc(O)cc2)NC(=O)[C@H]([C@@H](C)O)NC(=O)[C@H](C(C)C)NC(=O)[C@@H]2CSSC[C@H](NC1=O)C(=O)N[C@@H](Cc1ccc(O)cc1)C(=O)N[C@@H](CCCCN)C(=O)N[C@@H](CCC(N)=O)C(=O)N[C@@H](CCCNC(=N)N)C(=O)N2 [Gm, Gomesin]
- IC50 [1]: ~7 µM
- IC50 ([1]; listed as Gomesin): 7 µM
- resistance to lysosomal enzyme degradation (in words) ([2]; sonicated cells, pH 5 Tris buffer, different times, LC/ESI-MS (Figure 2B)): great stability to lysosomal enzymes
- Peptide Degradation ([2]; sonicated cultured cells in pH 5 Tris buffer (lysosomal enzymes), incubation 1–14 h, starting peptide concentration 10^−4 M taken as 100%, LC/ESI-MS, mean ± SEM): 0±0%
- internal presence of peptide after 24 h (B16 cells [3]; 2 µM biotinylated peptides): internal presence
- Max. Internal Fluorescence (B16 cells [3]; biotinylated peptides used, 2 µM, B16 cells, streptavidin-Alexa 647 (FL4) after fixation and saponin permeabilization, maximum over time course, mean ± SEM, three independent experiments): 603±79 AU
- type of cell death (annexin-V / 7-AAD label) (B16 cells [4]): An^+7-AAD^+
